We go through one compound from US20240239772A1, “PROTEASE INHIBITORS AND METHODS OF USE” (The Cleveland Clinic Foundation, priority 2021, published 2024).

The target in this assay is SARS-CoV-2 3CLpro (Severe acute respiratory syndrome coronavirus 2 (2019-nCoV) (SARS-CoV-2), UniProt P0DTD1). In kind it is biochemical.

Structures are written as SMILES.

`CC(C)CCN(C(=O)Cn1nnc2ccccc21)c1ccc(-c2cccnc2)cc1` [Compound 23, 2-(1H-Benzo[d][1,2,3]triazol-1-yl)-N-isopentyl-N-(4-(pyridin-3-yl)phenyl)acetamide] returned an IC50 of 2.51 ± 0.44 µM.

Usually IC50 stands for the midpoint of a concentration-inhibition curve. The low end stands for greater potency in that assay, the high end for weaker potency in that assay.
